From PubChem BioAssay AID651582 (Sanford-Burnham Center for Chemical Genomics, 2012) come the findings set out here.

The structures appear in SMILES notation. Only a part is listed here, and it is no random draw. Active and inactive are the calls of the source.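 Rule for the calls: active = pattern-corrected inhibition of lipid staining of at least 50% with the nuclear-stain viability signal not falling by more than 50%; inactive = the rest, inconclusive results apart.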

A short description of the assay: inhibitors of triacylglycerol accumulation, primary screen, cell-based, uHTS, fluorescence, H9c2 (AID 651582).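 Note: 0% = DMSO wells and 100% = triacsin C control wells.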 To be noted: H9c2 cells, Nile Red lipid (TAG) fluorescence; at 12.5 µM; hits give high values; cells loaded with 200 µM oleic acid.
Regarding `O=P(Nc1ccccn1)(c1ccc(Br)cc1)c1ccc(Br)cc1`, the inhibition was inactive: -13.5%.

By inhibition is commonly meant the drop in the measured response relative to a control, in per cent.
